Assay results reported in ChEMBL document CHEMBL2074205, “Inhibitory potencies of 1,4-dihydropyridine calcium antagonists to P-glycoprotein-mediated transport: comparison with the effects on CYP3A4” (Pharm Res, 2000).

Amino acid sequences for entries named in this document (tags omitted).
UniProt P08183, whole entry: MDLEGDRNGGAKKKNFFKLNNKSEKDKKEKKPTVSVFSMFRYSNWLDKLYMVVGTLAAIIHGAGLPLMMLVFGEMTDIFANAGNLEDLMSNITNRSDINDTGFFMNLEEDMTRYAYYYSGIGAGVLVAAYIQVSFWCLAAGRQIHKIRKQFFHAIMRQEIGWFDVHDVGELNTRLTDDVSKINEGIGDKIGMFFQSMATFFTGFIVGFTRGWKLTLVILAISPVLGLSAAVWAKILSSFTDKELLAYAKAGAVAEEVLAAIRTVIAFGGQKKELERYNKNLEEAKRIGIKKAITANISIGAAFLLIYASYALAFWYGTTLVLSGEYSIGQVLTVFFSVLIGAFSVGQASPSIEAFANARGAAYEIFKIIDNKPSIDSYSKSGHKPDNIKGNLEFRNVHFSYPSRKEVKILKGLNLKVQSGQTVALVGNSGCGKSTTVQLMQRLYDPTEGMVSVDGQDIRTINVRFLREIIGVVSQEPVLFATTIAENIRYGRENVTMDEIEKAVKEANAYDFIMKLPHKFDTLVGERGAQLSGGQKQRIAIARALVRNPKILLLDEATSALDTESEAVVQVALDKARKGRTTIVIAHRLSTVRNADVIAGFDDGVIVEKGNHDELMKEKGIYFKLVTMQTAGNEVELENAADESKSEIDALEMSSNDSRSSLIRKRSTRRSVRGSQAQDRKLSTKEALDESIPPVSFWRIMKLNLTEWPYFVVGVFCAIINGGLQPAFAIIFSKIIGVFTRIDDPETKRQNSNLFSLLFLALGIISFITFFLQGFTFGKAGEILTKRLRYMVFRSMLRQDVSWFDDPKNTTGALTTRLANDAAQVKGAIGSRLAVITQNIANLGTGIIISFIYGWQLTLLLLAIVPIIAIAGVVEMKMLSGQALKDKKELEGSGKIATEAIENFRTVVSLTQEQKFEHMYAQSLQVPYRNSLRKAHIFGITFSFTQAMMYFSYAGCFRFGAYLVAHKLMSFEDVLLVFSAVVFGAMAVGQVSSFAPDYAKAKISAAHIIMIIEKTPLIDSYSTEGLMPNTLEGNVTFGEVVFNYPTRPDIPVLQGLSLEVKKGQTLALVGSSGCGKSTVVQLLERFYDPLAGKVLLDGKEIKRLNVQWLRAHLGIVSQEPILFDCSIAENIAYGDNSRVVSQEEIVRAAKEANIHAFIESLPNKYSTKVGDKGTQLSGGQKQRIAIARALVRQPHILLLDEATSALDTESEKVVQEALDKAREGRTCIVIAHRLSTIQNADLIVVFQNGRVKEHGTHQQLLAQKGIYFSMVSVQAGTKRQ

Biological target: ATP-dependent translocase ABCB1 (Homo sapiens, UniProt P08183)
Assay: TP_TRANSPORTER: inhibition of Daunorubicin transepithelial transport (basal to apical) (Daunorubicin: 0.035 uM) in MDR1-expressing LLC-PK1 cells
Type: functional, cell-based

COC(=O)C1=C(C)NC(C)=C(C(=O)OCCN(C)Cc2ccccc2)C1c1cccc([N+](=O)[O-])c1 (stereo unspecified) [NICARDIPINE]
IC50: 17.5 µM
